Consider two compounds from EP0807624B1, “RETINOIC ACID DERIVATIVES” (THE SALK INSTITUTE FOR BIOLOGICAL STUDIES, priority 1991, dated 1993).

For one assay, the system named is HL60R cells. The assay can be described thus: Differentiation of HL60R cells (NBT). The assay is classed as cell-based. Conditions: concentrations up to 10 µM. The source says: Retinoids are known to differentiate human promyelocytic leukemia cells.

In turn, `CC1=C(/C=C/C(C)=C/C=C/C(C)=C/C(=O)O)C(C)(C)CCC1` had a Kd at CRABP of 20 nM. That is a double-digit nanomolar value. Regarding `CC1=C(/C=C/C(C)=C\C=C\C(C)=C\C(=O)O)C(C)(C)CCC1` [9-cis-retinoic acid], the “differentiation (NBT) of HL60R cells” value with HL60R cells is reported as “resistant to differentiation”.
